The results in this text go back to patent US11207296B2, “XPA inhibitor compounds and their use” (INDIANA UNIVERSITY RESEARCH AND TECHNOLOGY CORPORATION, priority 2017, dated 2021).

Protein sequences, listed by entry. Tags and fused reporters are not part of them.
UniProt P23025, whole entry: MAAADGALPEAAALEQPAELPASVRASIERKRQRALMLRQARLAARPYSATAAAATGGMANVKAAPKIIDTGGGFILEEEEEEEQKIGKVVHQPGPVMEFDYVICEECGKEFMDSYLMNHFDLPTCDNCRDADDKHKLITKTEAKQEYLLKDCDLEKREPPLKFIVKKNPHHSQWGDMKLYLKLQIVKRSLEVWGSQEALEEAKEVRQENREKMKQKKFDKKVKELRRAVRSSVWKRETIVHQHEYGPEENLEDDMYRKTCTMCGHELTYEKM

pIC50: −log10 of the molar value. Values joined by “and” are separate entries in the source; they are usually repeats but may differ in a detail not shown here. Identical values can stand only once.

This experiment deals with full length XPA protein (Homo sapiens, UniProt P23025).
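Also: XPA expressed in Sf9 cells, preincubated with compound on ice before adding DNA, complex resolved on native polyacrylamide gel at 4 °C, PhosphorImager band intensity, binding inhibition versus DMSO.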

As usually defined, the pIC50 is the negative decadic logarithm of the IC50, by convention in mol/L. High values mean a small IC50, low ones a large IC50. Turning to `CC1=NN(c2cccc(C(=O)O)c2)C(=O)/C1=C\c1ccc(-c2ccc(Cl)c(C(=O)NCC3CC3)c2)s1`, the pIC50 is 4.70 and 4.82.

In the case of `CC1=NN(c2cccc(C(=O)O)c2)C(=O)C1Cc1ccc(-c2ccc(Cl)c(C(=O)NCc3ccc(F)cc3)c2)s1` (centres unmarked), the pIC50 was 4.70.
